From patent publication US20200206304A1, “METHODS AND COMPOSITIONS FOR EFFICIENT DELIVERY THROUGH MULTIPLE BIO BARRIERS” (Cedars-Sinai Medical Center, priority 2017, published 2020)

Experiments:
[1] = Dynamic light scattering, hydrodynamic diameter and PDI; assay type: physicochemical; conditions: DLS in PBS; conjugates without attached rhodamine
Method: Dynamic Light Scattering: Synthesized conjugates were characterized using a Zetasizer Nano ZS90 (Malvern Instruments, Malvern, UK). Ten microliter aliquots of nanoconjugate samples were diluted in 0.99 mL PBS and were measured 3 times using a clear cuvette. Data represent the mean of three measurements and polydispersity index.

[2] = i.v. 0.068 μmol/kg; single exponential decay fit
[3] = system: blood-brain barrier (BBB); conditions: transgenic mice vs normal mice, doses 2×-8×
[4] = system: blood-brain barrier (BBB); test: BBB penetration: nanoconjugate fluorescence in brain parenchyma of healthy mice by optical imaging; conditions: i.v. 0.068-0.548 μmol/kg, 120 min, cortex, midbrain, hippocampus
[5] = Zeta potential measurements (Zetasizer Nano ZS90); assay type: physicochemical; conditions: in PBS; voltage 150 mV
Method: Zeta Potential Measurements: Synthesized conjugates were characterized with respect to their ζ potential using a Zetasizer Nano ZS90 (Malvern Instruments, Malvern, UK). Ten microliter aliquots of nanoconjugate samples were diluted in 0.99 mL PBS, and the voltage applied was 150 mV. Data represent the mean of three measurements±their standard deviation.

Brain (other hemisphere) = conditions: 2 h, PBS background subtracted

## PMLA/LLL/rhodamine [P/LLL]
[1]
  Hydrodynamic diameter (volume mode): 2.68 nm
[2]
  serum half-life: 1.98 h
[3]
  BBB permeation efficacy in AD brain (in words): A decrease was not observed
[4]
  BBB penetration / nanoconjugate fluorescence in brain parenchyma (in words): penetrates the BBB even without a peptide moiety
[5]
  ζ potential: −16.5 mV
Brain (other hemisphere); dose 1X
  Brain (other hemisphere) fluorescence: 1.0
Brain (other hemisphere); dose 4X
  Brain (other hemisphere) fluorescence: 5.1

Read-outs that look alike come from different tables or passages of the source.
